Source: PMC2999882 (Molecular pharmacology, 2008)

Sequences of proteins named here, by UniProt entry; tags and fusion partners are left off. Residues count along the entry.
UniProt P36544, 23-502: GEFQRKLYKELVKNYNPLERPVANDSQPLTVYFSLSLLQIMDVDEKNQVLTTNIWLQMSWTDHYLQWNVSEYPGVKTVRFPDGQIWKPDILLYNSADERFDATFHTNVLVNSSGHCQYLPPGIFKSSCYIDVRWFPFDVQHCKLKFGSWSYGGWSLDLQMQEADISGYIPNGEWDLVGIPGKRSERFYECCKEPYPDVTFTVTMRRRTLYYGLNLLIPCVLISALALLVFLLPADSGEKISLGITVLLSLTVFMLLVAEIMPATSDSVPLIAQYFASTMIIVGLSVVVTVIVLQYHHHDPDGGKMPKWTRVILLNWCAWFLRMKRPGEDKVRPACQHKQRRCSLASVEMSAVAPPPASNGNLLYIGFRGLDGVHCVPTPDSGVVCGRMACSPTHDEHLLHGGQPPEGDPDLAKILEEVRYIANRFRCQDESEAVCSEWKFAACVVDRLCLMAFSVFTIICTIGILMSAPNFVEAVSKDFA

Target: α7 nAChR (Homo sapiens, UniProt P36544)

C[N+]12CCC(CC1)CC2.[I-] [MQN, 1-methyl-1-azoniabicyclo[2.2.2]octane iodide]
selectivity classification: α7-selective agonists
